From ChEMBL document CHEMBL4196069 (Eur J Med Chem, 2018)

Experiments:
[1] = test system: PC-3; assay: Antiproliferative activity against human PC3 cells after 72 hrs by MTT assay; format: functional, cell-based
In short: (§1)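 Cells pre-incubated 24 h at 37 °C in humidified 5% CO2, then exposed to compounds for 72 h. MTT (5 mg/mL) was added for 4 h, formazan was dissolved in DMSO, and OD was read at 570 nm. Vehicle control was 0.1% DMSO. IC50 was calculated from inhibition ratios as the mean ± SD of three independent experiments.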

[2] = Selectivity index, ratio of IC50 for human LO2 cells to IC50 for human Bel7402 cells
[3] = test system: Bel-7402; assay: Antiproliferative activity against human Bel7402 cells after 72 hrs by MTT assay; format: functional, cell-based; in short: as §1
[4] = test system: Bel7402/5-FU; assay: Antiproliferative activity against human Bel7402/5-FU cells after 72 hrs by MTT assay
[5] = test system: L02; assay: Antiproliferative activity against human LO2 cells after 72 hrs by MTT assay; format: cell-based; in short: as §1

## O=C(O)c1ccc(N(CCCl)CCCl)cc1
[1]
  pIC50: 4.24
[2]
  Ratio IC50: 1.5
[3]
  pIC50: 4.33
[4]
  pIC50: < 4.10
[5]
  pIC50: 4.16

pIC50: −log10 of the molar value.
